Article PMC8765275, “Self-Inhibitory Peptides Targeting the Neisseria gonorrhoeae MtrCDE Efflux Pump Increase Antibiotic Susceptibility” (Antimicrobial Agents and Chemotherapy, 2022)

Experiments:
Type in all cases: cell-based, Neisseria gonorrhoeae
Conditions in all cases: antibiotic alone, EUCAST breakpoints
[1] = tested on: N. gonorrhoeae strain WHO X (MtrCDE overexpression)
Description: (§1) Six peptides were tested against N. gonorrhoeae strains with various antimicrobial resistance phenotypes and with either standard MtrCDE expression (strain FA1090) or MtrCDE overexpression (strains WHO K, WHO P, and WHO X [15, 16]) (Table 2). […] Subsequent experiments were conducted with subinhibitory peptide concentrations (20 μg/ml for FA1090; 50 μg/ml for WHO K, WHO P, and WHO X).
(§2) Experiments were performed using a microdilution method in triplicate wells.
(§3) High-level resistance, resistance, intermediate resistance, and susceptibility phenotypes were determined per previously determined MIC values ([15]) using the interpretive criteria published by the Swedish Reference Group on Antibiotics (SGRA) ([25]). For cotreatment assays (peptide plus antibiotic), the antibiotic dilutions were made up in GC broth that contained the peptide at the appropriate concentration. The experiments were performed with peptide-only and antibiotic-only controls. Each well was inoculated with 10 μl of the appropriate N. gonorrhoeae strain at an optical density (absorbance at 600 nm) of 0.1 (∼1 × 10^6 CFU/ml). All experiments were performed with triplicate samples on at least three occasions.

[2] = tested on: N. gonorrhoeae strain WHO P (MtrCDE overexpression)
Description: as §1, §2, §3

[3] = tested on: N. gonorrhoeae strain FA1090 (standard MtrCDE expression); assay: MIC, broth microdilution (CLSI), antibiotic alone, peptide alone or peptide cotreatment
Description: as §1, §2, §3

SMILES	Antimicrobial resistance phenotype, CRO [1]	Antimicrobial resistance phenotype, CRO [2]	Antimicrobial resistance phenotype, CRO [3]	Antimicrobial resistance phenotype, AZM [1]	Antimicrobial resistance phenotype, AZM [2]	Antimicrobial resistance phenotype, AZM [3]
CO/N=C(\C(=O)N[C@@H]1C(=O)N2C(C(=O)O)=C(CSc3nc(=O)c(=O)[nH]n3C)CS[C@H]12)c1csc(N)n1 [CRO, ceftriaxone]	2 (HLR)	S (S ≤ 0.125)	S (S ≤ 0.125)	–	–	–
CC[C@H]1OC(=O)[C@H](C)[C@@H](O[C@H]2C[C@@](C)(OC)[C@@H](O)[C@H](C)O2)[C@H](C)[C@@H](O[C@@H]2O[C@H](C)C[C@H](N(C)C)[C@H]2O)[C@](C)(O)C[C@@H](C)CN(C)[C@H](C)[C@@H](O)[C@]1(C)O [AZM, azithromycin]	–	–	–	I	R (R > 0.5)	S (S ≤ 0.25)
